# Test results taken from patent publication US8518443B2, “Opioid agonist formulations with releasable and sequestered antagonist” (Purdue Pharma, L.P., priority 2001, dated 2013).
# Format: in vivo
# Conditions: in comparison to a 15 mg dose of hydrocodone
structure (smiles),measurement,value
CN1CC[C@]23c4c5ccc(O)c4O[C@H]2C(=O)CC[C@H]3[C@H]1C5 [Hydromorphone],"Equianalgesic dose, Calculated Dose",3.375 mg
